Results as given in US8933221B2, “Hexahydropyrano[3,4-d][1,3]thiazin-2-amine compounds” (Pfizer Inc., priority 2011, dated 2015).

Sequences of proteins named here, by UniProt entry; tags and fusion partners are left off. Residues count along the entry.
UniProt P56817, 46-501 limits assumed: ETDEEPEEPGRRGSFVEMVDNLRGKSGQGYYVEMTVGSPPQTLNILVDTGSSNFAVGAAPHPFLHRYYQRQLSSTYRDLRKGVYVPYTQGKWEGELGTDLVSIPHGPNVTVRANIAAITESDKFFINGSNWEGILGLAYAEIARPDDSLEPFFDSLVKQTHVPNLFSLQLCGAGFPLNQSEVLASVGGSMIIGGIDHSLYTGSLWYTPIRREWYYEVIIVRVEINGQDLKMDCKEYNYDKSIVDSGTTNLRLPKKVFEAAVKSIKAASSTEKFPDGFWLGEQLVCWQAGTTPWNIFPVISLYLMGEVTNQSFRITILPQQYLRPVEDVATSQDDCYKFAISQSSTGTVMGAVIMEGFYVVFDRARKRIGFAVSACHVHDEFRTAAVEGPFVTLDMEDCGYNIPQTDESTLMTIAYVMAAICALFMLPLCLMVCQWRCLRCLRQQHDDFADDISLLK

Molecular target: BACE1 enzyme (Homo sapiens, UniProt P56817)
Experiment: BACE1 cell-free assay (fluorescence polarization, synthetic APP substrate);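 note: soluble His-tagged BACE1 purified from transfected CHO-K1 cell media, biotinylated Oregon Green-labelled peptide substrate, 3 h at 37 °C, cleavage followed as change in fluorescence polarization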
Assay type: biochemical
Details: geometric mean of 2-4 determinations; values marked b from a single determination

In the case of `NC1=N[C@@]2(c3c(F)cccc3F)COCC[C@H]2CS1` (relative stereo) [Example 16, rel-(4aR,8aS)-8a-(2,6-Difluorophenyl)-4,4a,5,6,8,8a-hexahydropyrano[3,4-d][1,3]thiazin-2-amine], the IC50 is reported as 13.8 µM.
